Earlier results as cited in patent US11129825B2, “Polysubunit opioid prodrugs resistant to overdose and abuse” (Elysium Therapeutics, Inc., priority 2015, dated 2021).

System: opioid receptor
Conditions: cited from earlier work

C=CCN1CC[C@]23c4c5ccc(O)c4O[C@H]2C(=O)CC[C@@]3(O)[C@H]1C5 [naloxone]
Effect on morphine-like opioid agonists (0.4-0.8 mg intramuscularly or intravenously, in man): prevent or reverse the effects of morphine-like opioid agonists
Blockade of the effect of heroin (one mg intravenously vs 25 mg of heroin): completely block the effect of 25 mg of heroin
